Results on one compound are retold here after patent publication US7605179B2, “Napthoquinone derivatives as inhibitors of tau aggregation for the treatment of alzheimer's and related neurodegenerative disorders” (Wista Laboratories Ltd., priority 2001, dated 2009).

By UniProt entry, the sequences of proteins in these tests, tags left out. Residues count along the entry.
UniProt P10636, 1-441 isoform 8: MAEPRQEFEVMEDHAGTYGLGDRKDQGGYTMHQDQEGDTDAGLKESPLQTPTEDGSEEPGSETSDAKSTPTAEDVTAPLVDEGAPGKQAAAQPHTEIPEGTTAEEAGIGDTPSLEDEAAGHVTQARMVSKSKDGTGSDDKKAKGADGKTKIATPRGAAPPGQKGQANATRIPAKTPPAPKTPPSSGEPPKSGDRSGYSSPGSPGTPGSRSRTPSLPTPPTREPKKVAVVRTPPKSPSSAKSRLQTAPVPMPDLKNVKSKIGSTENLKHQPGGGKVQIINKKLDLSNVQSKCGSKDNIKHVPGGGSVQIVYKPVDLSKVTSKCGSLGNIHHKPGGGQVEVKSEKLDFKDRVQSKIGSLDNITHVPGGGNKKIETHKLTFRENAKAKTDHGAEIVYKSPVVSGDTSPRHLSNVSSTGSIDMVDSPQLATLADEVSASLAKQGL

Data set [1] relates to fibroblast cells (3T6). Briefly: Toxicity in the T40/12 kD cell assay (lactate dehydrogenase kit). Type of data set: cell-based. As to conditions: tested form: K salt.
The target of data set [2] is tau-tau binding (Homo sapiens, UniProt P10636). Briefly: Cell-based assay I ('T40/12 kD'), production of the 12 kD fragment. As to conditions: tested form: K salt. An excerpt:
In essence, fibroblast cells (3T6) express full-length tau (“T40”) under control of an inducible promotor, and low constitutive levels of the PHF-core tau fragment (12 kD fragment). When T40 expression is induced, it undergoes aggregation-dependent truncation within the cell, N-terminally at ˜αα 295 and C-terminally at ˜αα 390, thereby producing higher levels of the 12 kD PHF-core domain fragment. Production of the 12 kD fragment can be blocked in a dose-dependent manner by tau-aggregation inhibitors. Indeed the quantitation of inhibitory activity of compounds with respect to proteolytic generation of the 12 kD fragment within cells can be described entirely in terms of the same parameters which describe inhibition of tau-tau binding in vitro. That is, extent of proteolytic generation of the 12 kD fragment within cells is determined entirely by the extent to tau-tau binding through the repeat domain. The availability of the relevant proteases within the cell is non-limiting.
The process is described in more detail in prior filed unpublished application GB 0101049.5. […]
A further parameter, B50, has been established in respect of compounds exemplified herein. The B50 value is the determined concentration of test compound used in the cell assay at which relative production of the 12 kD band from full-length tau was reduced to 50% of that observed in the absence of the compound. […]

As to `O=C1C=C(S(=O)(=O)O)C(=O)c2ccccc21`, in data set [1] (cellular LD50, cell numbers after 24 hrs exposure), the “LD50” value was 18.55 µM. Besides, the Rxindx in data set [1] (therapeutic index, RxIndx=LD50/B50) came to 5.45. Besides, the Ki in data set [2] (apparent KI calculated from T40/12 kD cell data, assumes intracellular tau 500 nM, tau-tau Kd 22 nM) was 0.157 µM. For the same compound, the IC50 in data set [2] (read-out: B50, concentration at which production of the 12 kD band from full-length tau is reduced to 50%) stood at 3.41 µM.
